Binding of CDR-mutated scFvs to a peptide of the spike HR2 region

The measurements come from Li et al. 2023 (doi:10.1038/s41467-023-39022-2) through the FLAb antibody collection.

Target: peptide PDVDLGDISGINAS, taken from heptad repeat 2 (HR2) of SARS-CoV-2 spike.

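The parent was found by panning a naive human phage display library on the peptide. The variants were designed computationally from a first round of random CDR variants and then made and measured. Group labels follow the data file (En: ensemble of fine-tuned language models; GP: Gaussian process model; HC: hill climbing; Gen: genetic algorithm; Gibbs: Gibbs sampling; a sequence that several methods proposed may carry one label only). AlphaSeq pools MATa yeast showing the antibodies with MATalpha yeast showing the peptide. The frequency of each diploid, read from paired DNA barcodes, reflects how well the two displayed proteins bind. Read counts were normalised to the haploid input and turned into Kd by a linear fit to BCL2-family pairs of known affinity, for each replicate. The assay was run in six technical replicates.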

Ab-14 is the parent antibody, in scFv form: VH, then a 15-residue (Gly4Ser)3 linker, then VL. The heavy chain is unchanged in all variants.
VH: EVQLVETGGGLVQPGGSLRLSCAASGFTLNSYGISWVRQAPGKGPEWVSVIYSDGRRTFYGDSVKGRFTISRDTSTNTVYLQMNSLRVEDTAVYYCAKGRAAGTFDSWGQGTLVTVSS
VL: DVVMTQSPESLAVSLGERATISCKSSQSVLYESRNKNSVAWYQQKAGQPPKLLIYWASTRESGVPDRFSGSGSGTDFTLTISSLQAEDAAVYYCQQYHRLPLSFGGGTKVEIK

Variants are written as CDR1, CDR2 and CDR3 of the light chain (limits as in the source). Parent: KSSQSVLYESRNKNSVA, WASTRES, QQYHRLPLS.
This list holds designs with more than six substitutions.
Values are apparent Kd, the geometric mean of the replicates that gave a signal; lower means stronger binding.
An entry "nd" has no value in the source: the pair was not observed among the diploids in any replicate. This suggests poor binding but is not conclusive.
A sequence measured in both rounds can read differently, since the two assays cover different ranges.
The authors averaged sequences with at least three values out of six and counted those with two or fewer as poor binders.
Background: pairings of all light chain designs with three empty control strains gave a value in 4% of cases (median 430 nM, 5th percentile 38 nM). Values in that range, when seen in few replicates, are hard to tell from nonspecific mating.
Of ten entries with the parent sequence, four were seen in most replicates (averages 2.2 nM to 240 nM), three in one and three in none, so single entries are noisy.

- KLMQMMPYESRNANNVA, NASTREE, QQYHRLPLS [GP_Gibbs]: 7.4 nM (6 of 6 replicates)
- MLGDVGFGLTRKEDSVA, DNDTRES, QQYDRLPLS [En_Gen]: 28 nM (6 of 6 replicates)
- SIRQVTCDNQRNHSNIA, DATQIEP, QQYSMLPLS [En_Gibbs]: 20 nM (6 of 6 replicates)
- KLSMTVDYMSATHSSVA, QTSTREE, QQYHRLPLS [En_HC]: 1.3 nM (6 of 6 replicates)
- KIYGYQGMHTRQANSIA, DNTTREN, QQYHRLPLS [En_Gen]: 8.9 nM (6 of 6 replicates)
- KLSSEYFDSYGERQAVA, ENEATSN, QQYSLLPLS [En_Gibbs]: 65 nM (6 of 6 replicates)
- QLYAVNDLTSKQSNNVA, EQTTREN, QQYHRLPLS [En_HC]: 5.7 nM (6 of 6 replicates)
- MMSQVTGLGQRHRNNVA, QTSTRED, QQYDHLPLA [En_Gen]: 1.5 nM (6 of 6 replicates)
- KIDENWNHGANRDNNIA, EARTVAA, QQYFRLPII [En_Gibbs]: 5.1 nM (6 of 6 replicates)
- KLSGSVLGESRNKNSVA, SADTRLM, QQYHRLPLS [GP_Gibbs]: 1.0 nM (6 of 6 replicates)
- IVSQLMLIGMHAKNSIA, EAEKRIN, QQYHRLPLM [En_Gen]: 64 nM (5 of 6 replicates)
- KLQWSHLYGSRNKNSVA, HASQRES, QCYHRLPLS [GP_Gibbs]: 20 nM (6 of 6 replicates)
- KLSESAHFESRKKNNVA, ENSTRES, QQYYHLPLS [En_HC]: nd (0 of 6 replicates)
- ALNQKGFQLSGMRDSIA, HSDIRLA, QQYYHLPLA [En_Gibbs]: 2.3 nM (6 of 6 replicates)
- KISQTFNVGTTNKNSLA, EMSTRGF, QDYHRLPLS [En_HC]: 7.7 nM (6 of 6 replicates)
- YMSMYLDMQDSIQCGVA, DATTRNA, QQYQRLPLS [En_Gibbs]: 9.6 nM (6 of 6 replicates)
- SFSQTVMYSSTMRNNVA, QTSTRES, QQYDRLPLS [En_HC]: 1.6 nM (6 of 6 replicates)
- KVSQWWLYESRMKNAVA, NASTRCD, QQYHRLPLS [GP_Gibbs]: 690 pM (6 of 6 replicates)
- FMQMQNDRMQDAAKNIA, DVDMRET, QQYARLPFM [En_Gibbs]: 4.4 nM (6 of 6 replicates)
- KLSPSQLYWSRNFNSVA, QASTRET, QQYHRLPLS [GP_Gibbs]: 70 nM (6 of 6 replicates)
- RFPEHLLMLESEIRSIA, NATKTME, QQYFRLPLV [En_Gibbs]: 2.2 nM (6 of 6 replicates)
- ILSQSVLMGSHLKNSVA, QASTRFE, QQYHRLPLM [En_HC]: 3.4 nM (6 of 6 replicates)
- IVSQLMIWGMHYKNSIA, EAELRLN, QQYDRLPLI [En_Gen]: 160 nM (4 of 6 replicates)
- KLMISVEYESRNQNSVA, SASYRED, QQYHRLPLS [GP_Gibbs]: 12 nM (6 of 6 replicates)
- KISMLLNMTFQMSNNVA, EMATREK, QQYNRLPLS [En_Gen]: 9.6 nM (6 of 6 replicates)
- TLGQVTMQLMVNKNSVA, DANTSED, QQYDRLPLS [En_HC]: 200 nM (3 of 6 replicates)
- MISQLYNMGQFAKNSVA, QASERNA, QQYDRLPLI [En_Gen]: 11 nM (6 of 6 replicates)
- KLVQFMNRGTHHTSNIA, DAQNRLD, QQYARLPLA [En_Gen]: 2.5 nM (6 of 6 replicates)
- MISQLYNMGQFAINSVA, QAQTRNE, QQYDRLPLT [En_Gen]: 270 nM (6 of 6 replicates)
- SLHDMNMVGLANNANVA, NASQLFS, QHYFRLPLQ [En_Gibbs]: 1.4 nM (6 of 6 replicates)
- AISQMTEPAAQNSSSIA, EADRVTE, QQYSKLPLT [En_Gibbs]: 12 nM (6 of 6 replicates)
- KLSMLYRYESENKNSIA, ELVTRMS, QQYHRLPLS [En_HC]: nd (0 of 6 replicates)
- KIMQMLNYSQFNVSNVA, GQETRER, QSYHRLPLS [En_HC]: 100 nM (3 of 6 replicates)
- KITFQGMLSDAHQYSIA, QTNVYSQ, QQYNRLPLD [En_Gibbs]: nd (0 of 6 replicates)
- KVQGSQLYESRNKNAVA, NASTRCD, QQYHRLPLS [GP_Gibbs]: 460 pM (6 of 6 replicates)
- KLQSITGTEKVSKNNVA, EMETRER, QQYNRLPLS [En_Gen]: 27 nM (6 of 6 replicates)
- NLSYQQQEPTGMVNSVA, QTSLRAH, QQYAHLPLC [En_Gibbs]: 4.3 nM (6 of 6 replicates)
- KVSQSVLMMSRNKNSVA, DNSTSGS, QQYHRLPLS [En_HC]: 310 nM (5 of 6 replicates)
- KMSQSNDYEERNDNAVA, NASQREM, QQYHRLPLS [GP_Gibbs]: 1.4 nM (6 of 6 replicates)
- MISQLYNMGQFAINSVA, QASIRNS, QQYDRLPLM [En_Gen]: 120 nM (4 of 6 replicates)
- KLVQSELYESRNKNNVA, GVSQRES, QQYHRLPLS [GP_Gibbs]: 1.1 nM (6 of 6 replicates)
- KFVQSWGYESRNKNAVA, HASTRCD, QQYHRLPLS [GP_Gibbs]: 2.2 nM (6 of 6 replicates)

Excerpt, the final 4 entries:

* KMSQSNDYEERNDNAVA, NASQREM, QQYHRLPLS [GP_Gibbs] -> 1.4 nM (6 of 6 replicates)
* MISQLYNMGQFAINSVA, QASIRNS, QQYDRLPLM [En_Gen] -> 120 nM (4 of 6 replicates)
* KLVQSELYESRNKNNVA, GVSQRES, QQYHRLPLS [GP_Gibbs] -> 1.1 nM (6 of 6 replicates)
* KFVQSWGYESRNKNAVA, HASTRCD, QQYHRLPLS [GP_Gibbs] -> 2.2 nM (6 of 6 replicates)